Experimental findings from US7737155B2, “Nitrogen-containing heterocyclic compounds and methods of use thereof” (Schering Corporation, priority 2005, dated 2010) are described below.

Protein sequences, listed by entry. Tags and fused reporters are not part of them.
UniProt Q8TDS4, whole entry: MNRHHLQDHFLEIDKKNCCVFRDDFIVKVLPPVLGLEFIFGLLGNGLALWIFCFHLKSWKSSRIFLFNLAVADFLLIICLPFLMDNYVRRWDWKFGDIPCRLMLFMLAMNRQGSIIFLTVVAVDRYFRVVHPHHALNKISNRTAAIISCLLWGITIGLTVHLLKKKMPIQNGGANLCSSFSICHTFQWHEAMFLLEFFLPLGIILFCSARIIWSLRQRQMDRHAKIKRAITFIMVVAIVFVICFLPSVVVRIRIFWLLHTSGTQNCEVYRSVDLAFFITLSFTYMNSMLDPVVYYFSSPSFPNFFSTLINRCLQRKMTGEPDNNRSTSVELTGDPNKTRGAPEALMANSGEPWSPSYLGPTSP

For this test, the target named is recombinant human nicotinic acid receptor (NAR) (Homo sapiens, UniProt Q8TDS4). The test can be described thus: Nicotinic Acid Receptor Assay: inhibition of forskolin-stimulated cAMP accumulation in CHO cells (MesoScale Discovery cAMP kit). The settings on record: read-out: NA EC50 camp, CHO cells expressing recombinant human NAR. Type of test: cell-based. (Changes in cAMP serve as a functional read-out for many G protein-coupled receptors.)

One may read the EC50 as the concentration giving half of the maximal effect.

Take `CCc1cc(=O)oc2nc(OCCOc3cccc(C(F)(F)F)c3)[nH]c(=O)c12`: the EC50 lay in the range of 100 to 1000 nM. The same measure for `CCc1cc(=O)oc2nc(OCC3CN(Cc4ccccc4)CCO3)[nH]c(=O)c12` (centres unmarked): > 1000 nM.
